Measured values taken from patent US20200171165A1, “ENHANCED TARGETED DELIVERY OF THERAPEUTIC AGENTS” (Proteogenomics Research Institute for Systems Medicine, priority 2018, published 2020).

Test system: human BT474 (HER2 positive) cells
Assay: IVM model of human BT474 breast tumors in human donor mammary tissue: tumor growth
Type: in vivo
Conditions: 5 mg/kg, antibody alone

## Herceptin: therapeutic antibody binding HER2 growth factor receptors
  Tumor growth over 14 days: slowed growth
